Results as given in ChEMBL document CHEMBL1781971, “Discovery of 5-(arenethynyl) hetero-monocyclic derivatives as potent inhibitors of BCR-ABL including the T315I gatekeeper mutant” (Bioorg Med Chem Lett, 2011).

Legend:
[1] = molecular target: T1, Tyrosine-protein kinase ABL1 (Homo sapiens, UniProt P00519, T315I); format: protein assay
[2] = molecular target: T2, Tyrosine-protein kinase ABL1 (Homo sapiens, UniProt P00519)
[3] = molecular target: T1, Tyrosine-protein kinase ABL1
[4] = molecular target: T2, Tyrosine-protein kinase ABL1; remark: listed apart in the source

CNC(=O)c1ncc(C#Cc2cc(C(=O)Nc3ccc(CN4CCN(CCO)CC4)c(C(F)(F)F)c3)ccc2C)n1C
IC50 [1]: 0.4 nM
IC50 [2]: 17.2 nM
IC50 [3]: 60.2 nM
IC50 [4]: 0.2 nM
